Results: patent US20240002463A1, “CHEMOGENETIC RECEPTORS AND METHODS OF MAKING AND USING” (Howard Hughes Medical Institute, priority 2022, published 2024)

Amino acid sequences for entries named in this document (tags omitted). Chains listed by the source or under a name are the forms on record and can include a tag or linker.
UniProt P36544, with tags, fused parts or gaps L141G/G175K/Y210F/Y217F/T225I/M226I: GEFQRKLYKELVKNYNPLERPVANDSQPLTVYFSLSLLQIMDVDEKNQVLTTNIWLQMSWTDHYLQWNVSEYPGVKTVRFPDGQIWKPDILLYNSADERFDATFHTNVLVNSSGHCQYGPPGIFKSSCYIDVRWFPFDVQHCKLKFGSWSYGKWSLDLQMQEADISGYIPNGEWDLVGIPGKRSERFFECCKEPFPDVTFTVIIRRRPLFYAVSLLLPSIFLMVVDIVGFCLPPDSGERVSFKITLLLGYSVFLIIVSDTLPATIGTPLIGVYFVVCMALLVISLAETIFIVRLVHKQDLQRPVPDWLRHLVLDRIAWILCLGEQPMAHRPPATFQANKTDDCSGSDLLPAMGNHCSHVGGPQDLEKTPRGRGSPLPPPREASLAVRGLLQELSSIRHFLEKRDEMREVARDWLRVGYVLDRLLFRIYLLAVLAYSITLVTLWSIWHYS

Target: coca-5HT3 (Homo sapiens, UniProt P36544, G175K/L141G/M226I/T225I/Y210F/Y217F)
Assay: binding constants by displacement of [3H]-ASEM or radiolabeled drug
Details: ligand for coca-5HT3

O=S1(=O)c2cc(N3CCN4CCC3CC4)ccc2-c2cccc(F)c21 [[^18F]-ASEM] showed a Ki of 9.3 nM.
